Test results taken from paper PMC8245773, “Brevibacillin 2V, a Novel Antimicrobial Lipopeptide With an Exceptionally Low Hemolytic Activity” (Frontiers in Microbiology, 2021).

System: K. pneumoniae LMG20218
Experiment: Synergy assay, checkerboard method
Conditions: synergistic ≤0.5

Work on CO[C@H]1/C=C/O[C@@]2(C)Oc3c(C)c(O)c4c(O)c(c(/C=N/N5CCN(C)CC5)c(O)c4c3C2=O)NC(=O)/C(C)=C\C=C\[C@H](C)[C@H](O)[C@@H](C)[C@@H](O)[C@@H](C)[C@H](OC(C)=O)[C@@H]1C [Rifampicin] yielded an FICI (antibiotic + brevibacillin I) of 0.266 and an FICI (antibiotic + brevibacillin V) of 0.266.
